# Source: patent publication US20080027145A1, “Therapeutic Molecules and Methods for Generating and/or Selecting Same” (priority 2004, published 2008)
# T1: human Bcl-w ΔC29 (C29S A128E) (human), Q92843
# T1 chain: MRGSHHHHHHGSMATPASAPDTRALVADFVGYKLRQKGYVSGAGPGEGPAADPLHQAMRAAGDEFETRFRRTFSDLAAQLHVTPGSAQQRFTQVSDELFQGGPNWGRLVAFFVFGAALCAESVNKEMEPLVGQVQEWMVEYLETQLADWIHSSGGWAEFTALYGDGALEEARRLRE
# Assays:
# Assay in all cases: Biacore solution competition against immobilised mouse wtBimBH3
# [1] = biological target: human Bcl-2 ΔC22 (human), P10415
# [2] = biological target: T1, human Bcl-w ΔC29 (C29S A128E) (human), …
# [3] = biological target: human Bcl-xL ΔC24 (human), Q07817
binder,measurement,setting,value
"EEQWAREIGAQLRRMADDLNAQYERR (modifications not checked) [Puma (130-155) BH3 peptide, human]",IC50,[1],3.3 nM
same,IC50,[2],5.1 nM
same,IC50,[3],6.3 nM
